The values below are quoted from earlier work in paper PMC9574855 (Journal of Medicinal Chemistry, 2022).

Data set [1] relates to 403 WT human kinases. The conditions noted are these: 1 μM, published data, YM201636; cited from earlier work.
Data set [2] has as its system PIK3CB. The conditions noted are these: 1 μM; cited from earlier work.

On to `Nc1ccc(C(=O)Nc2cccc(-c3nc(N4CCOCC4)c4oc5ncccc5c4n3)c2)cn1` [YM201636, 6-amino-N-[3-[4-(4-morpholinyl)pyrido[3',2':4,5]furo[3,2-d]pyrimidin-2-yl]phenyl]-3-pyridinecarboxamide], for which the “# scanMAX kinases with PoC < 10” value in data set [1] was 2. Besides, in data set [2], the “PIK3CB percent of control (PoC)” value is recorded as 9.8 PoC.
